Experimental findings from PMC7310041 are described below.

Amino acid sequences for entries named in this document (tags omitted).
UniProt P68363, whole entry, chain 1 of 2: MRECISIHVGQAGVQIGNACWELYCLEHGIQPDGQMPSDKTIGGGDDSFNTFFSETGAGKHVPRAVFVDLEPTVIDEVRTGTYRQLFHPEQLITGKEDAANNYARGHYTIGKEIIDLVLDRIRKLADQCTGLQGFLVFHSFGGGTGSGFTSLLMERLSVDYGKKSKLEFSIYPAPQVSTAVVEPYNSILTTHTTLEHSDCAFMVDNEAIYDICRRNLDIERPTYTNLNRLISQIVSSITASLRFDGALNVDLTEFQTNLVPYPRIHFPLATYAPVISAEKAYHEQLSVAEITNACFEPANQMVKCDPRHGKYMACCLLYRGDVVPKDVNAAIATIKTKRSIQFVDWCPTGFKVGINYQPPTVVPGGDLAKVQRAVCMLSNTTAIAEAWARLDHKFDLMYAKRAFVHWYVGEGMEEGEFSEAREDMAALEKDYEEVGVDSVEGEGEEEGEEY

For the test, the target named is microtubules (paclitaxel-stabilised polymerised tubulin) (human (endogenous in HEK293T)) (UniProt P68363). Put plainly: co-sedimentation; cell-based MT binding assay: lysate of transfected HEK293T cells in PEM buffer (80 mM PIPES pH 6.8, 1 mM EGTA, 1 mM MgCl2) with 0.1% Triton X-100, 2 mM GTP, 20 uM paclitaxel; 37 °C 30 min; 100,000 g 30 min; tau in supernatant and pellet by Western blot; percent MT-bound = pellet/(supernatant+pellet)*100. In general terms: In western blotting, separated proteins are transferred to a membrane and probed.

Substance “2N4R human WT tau (from UniProt P10636-8 1-441) (natural protein)” registered a percent of tau bound to MTs of 30%.
